Values of other authors, collected in PMC6314986.

Conditions: urine of the deceased individual; cited from earlier work

CCCCCn1cc(C(=O)N2CCN(C)CC2)c2ccccc21
Urinary level of unchanged compound, previously found: 527 ng/mL
